Measured values: US5140009A (Tap Pharmaceuticals, Inc., priority 1990, dated 1992)

Columns and labels:
LHRH receptors = target: T1, LHRH receptors (Rattus norvegicus, UniProt P30969); experiment: Receptor Binding (radioligand receptor binding assay); settings: rat pituitary membranes, 2 hours at 4° C.
T1 construct: Pituitary membranes containing LHRH receptors are prepared in batches from quick-frozen rat pituitaries; tissue Hilltop Labs; host or cells: rat pituitary membranes
T1 sequence (P30969 1-327): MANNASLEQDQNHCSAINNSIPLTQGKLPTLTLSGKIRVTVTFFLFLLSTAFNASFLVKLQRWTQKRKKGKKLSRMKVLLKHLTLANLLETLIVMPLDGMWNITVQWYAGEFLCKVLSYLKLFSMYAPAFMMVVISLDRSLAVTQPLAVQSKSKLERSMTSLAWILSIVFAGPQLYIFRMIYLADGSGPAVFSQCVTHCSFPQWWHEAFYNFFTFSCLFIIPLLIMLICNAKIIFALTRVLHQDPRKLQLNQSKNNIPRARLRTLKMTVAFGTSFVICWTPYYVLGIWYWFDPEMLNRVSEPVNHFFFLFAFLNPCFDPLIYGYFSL

Rat pituitaries = target: T2, Rat pituitaries (Rattus norvegicus, UniProt P30969); experiment: In vitro LH release suppression by LHRH antagonists in presence of superagonist [D-Leu^6 -Pro^9 NHEt]LHRH (pA2); assay type: cell-based; settings: table 3; negative log of concentration producing half-maximum suppression of LH; 180 min
T2 sequence (P30969 1-327): T1 sequence (P30969 1-327)

[1] = table 3, radioiodinated [D-Leu^6 -des Gly^10 ]-LHRH ethyl amide 50 pM

| Substance | Receptor Binding pkI (LHRH receptors; table 4, radioligand 50 pM) | LH Inhibition pA2 (Rat pituitaries) | Receptor Binding pkI (LHRH receptors; [1]) |
| --- | --- | --- | --- |
| (2-10)[N-(alpha-Morpholinocarbonyl)-D-4-Cl-Phe^2 -D-Thia^3 -D-Lys^6 -D-Ala^10 ]LHRH [Compound 228] | 10.68 | – | – |
| (2-10)[N-(alpha-Morpholinocarbonyl)-D-4-Cl-Phe^2 -D-Thia^3 -NMeTyr^5 -D-Lys^6 -D-Ala^10 ]LHRH [Compound 229] | 9.68 | – | – |
| (3-9)[N-(3-(4-Fluorophenyl)propionyl) -D-Trp^3,6 -4-OH-Pro^4 -Pro^9 NHEt]LHRH [Compound 146] | 8.90 | – | – |
| (3-9)[N-(Phenylacetyl)-Trp^3 -D-Trp^6 -Pro^9 -NHEt]LHRH [Compound 67] | – | 8.20 | 9.24 |
| (3-10)[N-(3-(4-Fluorophenyl)propionyl)-D-1-Nal^3 -D-Lys^6 (N-epsilon-4-methoxybenzoyl)-Lys^8 (N-epsilon-isopropyl)-D-Ala^10 ]LHRH [Compound 206] | 11.69 | – | – |
| (3-10)[N-(3-(4-Fluorophenyl)propionyl)-D-Trp^3 -NMeTyr^5 -D-Lys^6 (N-epsilon-nicotinyl)-D-Ala^10 ]LHRH [Compound 163] | 10.60 | – | – |
| N-(2-(1-Naphthylmethyl)-4-ethylamidosuccinyl)-Trp -Ser-Tyr-D-Trp-Leu-Arg-ProNHEt [Compound 132] | – | – | 10.05 |
